{
  "source": "patent US20230375531A1",
  "about": "(MIT, published 2023)",
  "binders": {"B1": {"name": "bare cellulose binding domain (CBD) (other, Hungateiclostridium thermocellum, UniProt Q06851 364-522, looked up)", "chain": "PVSGNLKVEFYNSNPSDTTNSINPQFKVTNTGSSAIDLSKLTLRYYYTVDGQKDQTFWCDHAAIIGSNGSYNGITSNVKGTFVKMSSSTNNADTYLEISFTGGTLEPGAHVQIQGRFAKNDWSNYTQSNDYSFKSASQFVEWDQVTAYLNGVLVWGKEP"}},
  "target": "biotinylated monoFc-ACE2 receptor (human ACE2 residues 19-615 with N-terminal monoFc) (human, UniProt Q9BYF1 19-615)",
  "data": [
    {"binder": "B1", "values": [
      {"measurement": "binding result", "value": "no binding"}
    ]}
  ]
}
